The source of these data is PubChem BioAssay (NCI).

Where “and” joins values, the source holds several entries; their conditions need not be identical. Equal values may be shown once. Only a part is listed here, and it is no random draw. Calls of active or inactive are those of the source. Rule as the data show it: active = growth inhibition above about 70%; inactive = the rest.

Test [1] is described as follows: NCI Yeast Anticancer Drug Screen. Data for the rad50 strain (AID 155).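 Also: 0% = growth of vehicle-only cultures of the same strain.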 The note with it: S. cerevisiae rad50 strain growth inhibition; at 50.0 µM; hits give high values.
A short description of test [2]: NCI Yeast Anticancer Drug Screen. Data for the mec2-1 strain (AID 157). The note with it: S. cerevisiae mec2-1 strain, at 50.0 µM, hits give high values.
Test [3] can be described thus: NCI Yeast Anticancer Drug Screen. Data for the sgs1 mgt1 strain (AID 161).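 Also: 0% = growth of cultures given vehicle only.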 The settings on record: S. cerevisiae sgs1 mgt1 strain, at 50.0 µM, hits give high values.
Test [4] in a line: NCI Yeast Anticancer Drug Screen. Data for the cln2 rad14 strain (AID 165).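 Also: 0% = growth equal to vehicle treated cultures.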 The settings on record: S. cerevisiae cln2 rad14 strain, at 50.0 µM, hits give high values.
The nature of test [5]: NCI Yeast Anticancer Drug Screen. Data for the bub3 strain (AID 167). The note with it: S. cerevisiae bub3 mutant strain, at 50.0 µM, hits give high values.
A short description of test [6]: NCI Yeast Anticancer Drug Screen. Data for the mlh1 rad18 strain (AID 175). The settings on record: S. cerevisiae mlh1 rad18 strain growth inhibition; at 50.0 µM; hits give high values.

Regarding `N#CCCOP(=O)(N(CCCl)CCCl)N1CC1` (stereo unspecified), the growth inhibition in test [1] was active: 82.5%; in test [2], inactive: 60.3%; in test [3], active: 91.4%; in test [4], inactive: 48.5%; in test [5], active: 93.7%; in test [6] it was active: 73.8%.
`CC(=O)N(CCCl)CCCl`: the growth inhibition in test [1] is inactive: 0.1%; in test [2], inactive: 10.3%; in test [3], inactive: 11.2%; in test [4], inactive: -38.4%; in test [5], inactive: -46.7%; in test [6], inactive: 7.4%.
Turning to `O=C(Nc1cc([N+](=O)[O-])cc([N+](=O)[O-])c1)c1cc([N+](=O)[O-])cc([N+](=O)[O-])c1`, the growth inhibition in test [1] was inactive: -11.8%; in test [2] it was inactive: 2.7%; in test [3], inactive: 7.8%; in test [4], inactive: -5.1%; in test [5], inactive: -1.45%; in test [6], inactive: 16.1%.
Consider `CCOP(=O)(NC1CCCCC1)OCC`, for which the growth inhibition is inactive: -10.8% in test [1]; inactive: -34.2% in test [2]; inactive: 9.3% in test [3]; inactive: 1.85% in test [4]; inactive: -3% in test [5]; inactive: 15.8% in test [6].
For the molecule `O=P1(N(CCCl)CCCl)OCC(CCl)O1` (stereo unspecified), the growth inhibition in test [1] is inactive: 4.7%; in test [2], inactive: 7.3%; in test [3] it was inactive: 0.85%; in test [4], inactive: 10.9%; in test [5], inactive: -0.85%; in test [6], inactive: 7.4%.
In the case of `Cc1ccc(NC(=S)NP(=O)(Oc2ccccc2)Oc2ccccc2)nc1`, the growth inhibition in test [1] was inactive: 6.7%; in test [2], inactive: -7.65%; in test [3] it was inactive: -10.6%; in test [4], inactive: -7.05%; in test [5], inactive: -2.35%; in test [6], inactive: 4.25%.
Regarding `NC(=O)Nc1ccc(N(CCCl)CCCl)cc1`, the growth inhibition is inactive: 9.45% in test [1]; inactive: -2.95% in test [2]; inactive: -20.4% in test [3]; inactive: -12.6% in test [4]; inactive: -26.4% in test [5]; inactive: -13.2% in test [6].
On to `O=C1OCCN1P(=O)(Cl)N1CCOC1=O`, for which the growth inhibition in test [1] is inactive: -1.9%; in test [2] it was inactive: -11.9%; in test [3] it was inactive: -15.6%; in test [4], inactive: 5.25%; in test [5], inactive: -4.7%; in test [6], inactive: -1.45%.
Consider `O=C(NP(=O)(N1CCOCC1)N1CCOCC1)N1CCOCC1`, for which the growth inhibition was inactive: 26.6% in test [1]; inactive: -3.15% in test [2]; inactive: 10.8% in test [3]; inactive: 16.1% in test [4]; inactive: 15.4% in test [5]; inactive: -2.15% in test [6].
Regarding `O=C1C(F)=C(NCCBr)C(=O)C(F)=C1NCCBr`, the growth inhibition was inactive: 8.95% in test [1]; inactive: -5.25% in test [2]; inactive: 11.1% in test [3]; inactive: 25.8% in test [4]; inactive: 21.9% in test [5]; inactive: 33.7% in test [6].
With `CN(C)CC(=O)c1ccc2c(ccc3ccccc32)c1`, the growth inhibition in test [1] was inactive: 33.3%; in test [2] it was inactive: 6.05%; in test [3], inactive: 42.8%; in test [4], inactive: 1%; in test [5], inactive: 3.8%; in test [6], inactive: 24.4%.
Regarding `O=C(OCc1ccc([N+](=O)[O-])cc1)Oc1c(Cl)cc([N+](=O)[O-])cc1[N+](=O)[O-]`, the growth inhibition is inactive: -7.75% in test [1]; inactive: -57.3% in test [2]; inactive: 5.2% in test [3]; inactive: -12.2% in test [4]; inactive: 15.6% in test [5]; inactive: 35.2% in test [6].
With `C[CH2][Pb]([C]#N)([CH2]C)[CH2]C`, the growth inhibition in test [1] was active: 94.3%; in test [2], active: 94.5%; in test [3], active: 98%; in test [4] it was active: 86.9%; in test [5], active: 96.8%; in test [6], active: 96.3%.
On to `CCCCCCCCCCCCCCCCCC(=O)OCC(COP(=O)(Oc1ccccc1)N(CCCl)CCCl)OC(=O)CCCCCCCCCCCCCCCCC` (stereo unspecified), for which the growth inhibition in test [1] was inactive: 5.35%; in test [2], inactive: 7.55%; in test [3], inactive: 7.85%; in test [4] it was inactive: -1.35%; in test [5], inactive: -3.2%; in test [6], inactive: 7.8%.
Take `NC(=S)NP(=O)(NC(N)=S)NC(N)=S`: the growth inhibition is inactive: -19.3% in test [1]; inactive: -1.8% in test [2]; inactive: -7% in test [3]; inactive: -48.2% in test [4]; inactive: 7.05% in test [5]; inactive: -15.3% in test [6].
For the molecule `Cc1ccc(N[P@]2(Cl)=NP(Cl)(Cl)=N[P@@](Cl)(Nc3ccc(C)cc3)=NP(Cl)(Cl)=N2)cc1`, the growth inhibition in test [1] was inactive: -1.15%; in test [2], inactive: -3.85%; in test [3], inactive: -5.9%; in test [4] it was inactive: -6.85%; in test [5], inactive: -2.95%; in test [6], inactive: 0.8%.
Turning to `CCOP1(=O)N=C(NC#N)N(C)C1(C)C` (stereo unspecified), the growth inhibition in test [1] was inactive: -44.6% and inactive: -14.4%; in test [2] it was inactive: -63.8% and inactive: -0.25%; in test [3], inactive: -25.1% and inactive: -20.4%; in test [4], inactive: -10.9% and inactive: 16.1%; in test [5] it was inactive: 6.2% and inactive: 30.9%; in test [6], inactive: -29.7% and inactive: -28.9%.
In the case of `ICCN(CCI)c1cccc2ccccc12`, the growth inhibition was inactive: 5.6% in test [1]; inactive: -0.1% in test [2]; inactive: 0.05% in test [3]; inactive: 33.7% in test [4]; inactive: -0.1% in test [5]; inactive: -13.6% in test [6].
In the case of `CCN(CC)Cc1ccc(N(CCCl)CCCl)cc1`, the growth inhibition in test [1] was inactive: 4.3%; in test [2], inactive: 8.6%; in test [3], inactive: -8.85%; in test [4], inactive: 35.6%; in test [5], inactive: 14.7%; in test [6], inactive: 14.7%.
On to `Fc1cccc(NC2=NCC(CI)S2)c1` (stereo unspecified), for which the growth inhibition in test [1] was inactive: -5.1%; in test [2], inactive: 19.1%; in test [3], inactive: 47.3%; in test [4], inactive: 33.8%; in test [5] it was inactive: 8%; in test [6] it was inactive: -5.05%.
On to `Cc1cc(C)nc(NP(=O)(Oc2ccccc2)Oc2ccccc2)n1`, for which the growth inhibition in test [1] is inactive: -6.85%; in test [2], inactive: -8.85%; in test [3] it was inactive: 12.9%; in test [4] it was inactive: -23.2%; in test [5], inactive: 6.45%; in test [6] it was inactive: -13.7%.
